Among the data in patent US20150125904A1, “PROBE INCORPORATION MEDIATED BY ENZYMES” (Massachusetts Institute of Technology, priority 2012, published 2015) are toxicity of labeling values, retold here.

This series concerns rat neurons. The conditions noted are these: 100 nM dye after TCO2 ligation.

“Aminobenzyltetrazine Alexa Fluor 647 [Tz1-Alexa 647]”: the toxicity of labeling entry was “minimal apparent toxicity”.
